MC4R ag barr – activates human MC4R beta-arrestin recruitment. U2OS MC4R beta-arrestin complementation, luminescence; percent of melanotan II response, DMSO zero. activation, % at 8.9 µM. hit rate 0.98% among 360,000. AID 540308;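 active means activation above a per-plate cutoff, the mean activation of sample wells on that plate plus 3 SD, cut at about 8% in these data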
CendR NRP1 mod – modulators of CendR peptide binding to human neuropilin-1 | O14786 | FAM-RPARPAR peptide binding to NRP-1, fluorescence polarization | inhibition, % at 25 µM | hit rate 0.85% among 360,000 | AID 602438;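 active means inhibition or corrected inhibition above about 18%, plus a signal ratio from 0.5 to 1.5, limit read from the data, passing the limit was not always enough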
ARFGAP1 inh – inhibits rat ARF GTPase activating protein 1; Q62848; Arfgap1-stimulated ARF1 GTP hydrolysis, GDP FP detection; inhibition, % at 16.5 µM; hit rate 0.26% among 360,000; AID 651572;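 active means inhibition above a per-plate limit, mean inhibition of low control wells plus 3 SD, cut at about 25% in these data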;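 further: 0% = DMSO wells with enzyme and 100% = wells lacking Arfgap1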
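Assay system: Rat Arfgap1 GAP domain (His6, aa 1-136), purified enzyme | Buffer or medium: HEPES 25 mM pH 7.5, NaCl 150 mM, MgCl2, DTT | Schedule: GTP hydrolysis reaction 2 h at 25 °C | Signal: FP of antibody-bound GDP Alexa 633 tracer, ex 620/em 688 nm | Measure: Percent inhibition of Arfgap1-stimulated GTP hydrolysis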
MC4R antag cAMP – human MC4R antagonism in cAMP assay; MC4R-expressing cells, MTII-stimulated cAMP, LANCE TR-FRET; hit rate 0.48% among 360,000; inhibition, % at 6.5 µM; P32245;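 active means inhibition above its plate's cutoff, the mean of tested wells on that plate plus 3 SD, cut at about 29% in these data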;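 further: 0% = Melanotan II alone and 100% = Melanotan II plus saturating MCL0020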
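Assay system: U2OS cells stably expressing human melanocortin 4 receptor (MC4R) / Dosing: 6.5 µM / Timing: compound 30 min, challenge 1 h, detection 1 h / Measured by: Eu-cAMP/anti-cAMP TR-FRET, emission 671 nm / Replicates: singlicate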
Yeast UUG start – modulators of yeast start codon fidelity, primary screen, whole organism, S. cerevisiae, single point, plate reader | AID 602363, 2012 | S. cerevisiae UUG-firefly luciferase reporter, luminescence/redox ratio | activity score, % at 18.7 µM | hit rate 0.13% among 350,000;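 active = replicate mean at a twofold rise or more, about +100% in these data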;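 also: firefly luciferase made from a UUG start codon reports start codon fidelity; reporter light over untreated wells divided by growth signal over untreated wells; some hits fall short of that in this replicate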
ASAP1 inh – blocks human ASAP1-stimulated Arf1 GTP hydrolysis; inhibition, % at 16.5 µM; GDP FP detection; hit rate 0.19% among 360,000; in the data active means inhibition above about 25%;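 further: 0% = vehicle with enzyme and substrate and 100% = no enzyme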
* hit, by the source's call; . = no result. An excerpt weighted towards active compounds, which were near 2.3% of everything screened.

Each structure is followed by: MC4R ag barr, CendR NRP1 mod, ARFGAP1 inh, MC4R antag cAMP, Yeast UUG start, ASAP1 inh
[1] COc1ccc(NC(=O)N(C)C[C@@H]2Oc3ccc(NC(=O)c4ccncc4)cc3CC(=O)N([C@H](C)CO)C[C@@H]2C)cc1
→ ., ., ., ., -8.7, .
[2] O=S(=O)(N[C@H]1CC[C@H](CCn2cc(C3CC3)nn2)O[C@H]1CO)c1ccc(F)cc1
→ ., ., ., ., -2.0, .
[3] COc1ccc(-c2noc(C(=O)NCc3ccc(F)cc3)n2)cc1OC
→ 3.9, 36.7*, 8.8, -10.8, ., 18.7
[4] COc1ccc(-c2noc(C(=O)NCc3ccccc3Cl)n2)cc1OC
→ -2.8, -0.4, -2.6, 14.5, ., -1.9
[5] CCCNC(=O)C[C@@H]1C[C@@H]2c3cc(NS(=O)(=O)c4ccc(F)cc4)ccc3O[C@@H]2[C@@H](CO)O1
→ ., ., ., ., 7.5, .
[6] COc1ccccc1-c1cn(CC[C@@H]2CC[C@H](NC(=O)c3ccccc3F)[C@@H](CO)O2)nn1
→ ., ., ., ., 17.9, .
[7] Oc1ccc(Nc2ncnc3c2oc2ccccc23)cc1
→ -1.9, -3.4, 2.2, -0.7, -15.3, 10.0
[8] c1ccc(Nc2ncnc3c2oc2ccccc23)cc1
→ -2.7, 24.3*, 8.2, -0.4, -1.1, -4.0
[9] Cc1cc(C)cc(NC2=NCC(=O)N2Cc2ccccc2)c1
→ 0.7, 35.1*, -10.2, 2.6, -2.5, 3.2
[10] Cc1noc(C)c1S(=O)(=O)Nc1ccc2c(c1)CC(=O)N([C@H](C)CO)C[C@H](C)[C@H](CN(C)Cc1ccc3c(c1)OCO3)O2
→ ., ., ., ., -18.7, .
[11] O=C(C[n+]1ccccc1)N/N=C/c1cccc(Cl)c1Cl
→ 0.7, 12.0, -11.2, 9.1, -10.4, -0.2
[12] O=C(C[n+]1ccccc1)N/N=C/c1ccccc1Cl
→ -3.6, 26.4*, -2.5, -2.7, -11.5, -6.5
[13] O=C(Nc1ccccc1Br)C1CC(=O)N(c2ccc3c4c(cccc24)CC3)C1 (centres undefined)
→ 1.3, 38.4*, 2.8, -10.3, ., 8.3
[14] Cn1c(SCC(=O)NNC(=O)c2ccccc2)nnc1C1CC1
→ -2.0, 24.4*, 12.2, 11.2, -9.0, 7.9
[15] Cc1ccc(C(=O)NNC(=O)CSc2nnc(C(C)C)n2C)cc1
→ 1.3, 19.6*, 9.8, 0.6, -7.3, -2.9
[16] Cc1ccc(C(=O)NNC(=O)CSc2nnc(C3CC3)n2C)cc1
→ 0.3, -1.8, -11.2, 25.9, -6.6, -1.6
[17] Cc1nnc(SCC(=O)NNC(=O)c2ccc(Br)cc2)n1C
→ -2.2, 8.8, 1.7, 1.7, ., -4.2
[18] C[C@H](CO)N1C[C@H](C)[C@H](CN(C)S(=O)(=O)c2cccs2)OCCCC[C@H](C)Oc2ccc(NC(=O)C3CCCCC3)cc2C1=O
→ ., ., ., ., -8.5, .
[19] Cc1ccccc1S(=O)(=O)N(C)C[C@@H]1OCc2cn(nn2)CCCC(=O)N([C@@H](C)CO)C[C@@H]1C
→ ., ., ., ., 2.8, .
[20] CO[C@@H]1CN(C)C(=O)c2cc(NS(=O)(=O)c3ccccc3F)ccc2OC[C@H](C)NC[C@@H]1C
→ ., ., ., ., -11.5, .
[21] COc1ccccc1NC(=O)N1CC[C@H]2[C@@H]1c1cc(-c3ccccc3)ccc1N(C)[C@H]2CO
→ ., ., ., ., -19.0, .
[22] CC(C)[C@H](NC(=O)c1ccccc1)C(=O)OCC(=O)c1ccccc1F
→ -1.5, -10.8, 10.6, 0.9, ., 10.4
[23] CC(C)[C@H](NC(=O)c1c(F)cccc1F)C(=O)OCC(=O)NNC(=O)c1ccccc1
→ -0.3, 21.1*, -8.2, 2.2, -12.8, -5.9
[24] CCOC(=O)c1cnc(-n2nc(C)cc2C)nc1Nc1ccc(OC)cc1
→ -1.9, 30.3*, -2.2, -1.0, -22.4, 1.5
[25] O=C(C1CCN(S(=O)(=O)c2c(Cl)cccc2Cl)CC1)N1CCCCCCC1
→ 4.0, 8.1, 2.7, -3.3, ., -1.4
[26] O=C(OC1CCOC1=O)C1CCN(S(=O)(=O)c2c(Cl)cccc2Cl)CC1 (centres undefined)
→ -2.7, 20.2*, 5.1, -37.3, 6.3, 4.6
[27] C[C@H](CO)N1C[C@H](C)[C@@H](CN(C)C(=O)Nc2cccc3ccccc23)Oc2ccc(NC(=O)c3ccncc3)cc2C1=O
→ ., ., ., ., -1.6, .
[28] O=C(COC(=O)COc1cccc(C(F)(F)F)c1)NC1CCS(=O)(=O)C1 (centres undefined)
→ -1.2, -1.9, 3.4, 5.0, -22.2, -5.1
[29] O=C(COC(=O)COc1cccc(C(F)(F)F)c1)NC(=O)NC1CCCCC1
→ 8.7*, 7.2, -2.0, -2.2, -20.3, -10.0
[30] COCC(=O)Nc1ccc2c(c1)C(=O)N(C)[C@@H]1CC[C@@H](CC(=O)NC3CCCC3)O[C@H]1CO2
→ ., ., ., ., -24.3, .
[31] COc1cccc(NS(=O)(=O)c2c(C(=O)N3CCCCCC3)c(C)n(C)c2C)c1
→ -1.1, 6.3, 0.2, 9.3, -5.2, -6.6
[32] COc1cccc(NS(=O)(=O)c2ccc(C)c(C(=O)N3CCCCC3)c2)c1
→ -1.1, 20.4*, 0.2, 3.2, -11.1, -5.3
[33] CS(=O)(=O)Nc1ccc2c(c1)[C@H]1C[C@H](CC(=O)NCc3ccc(Oc4ccccc4)cc3)O[C@@H](CO)[C@H]1O2
→ ., ., ., ., -2.2, .
[34] C[N+](C)(CC#Cc1ccccc1)CC(=O)c1ccccc1
→ -2.2, 41.9*, 0.1, -5.6, -10.2, -6.0
[35] CNc1cc(=O)n(C)c(=O)n1-c1ccccc1
→ -3.2, -0.3, -1.6, 5.6, ., 5.6
[36] CCn1c(NC)cc(=O)n(C)c1=O
→ -0.7, 21.2*, 1.9, 0.6, 14.9, 9.8
[37] COc1ccc(NC(=O)Nc2ccc(Br)cn2)cc1
→ 7.6, 24.3*, 14.6, 1.7, ., 6.4
[38] Cc1ccc(OCCC(=O)OCC(=O)c2c(N)n(CC(C)C)c(=O)n(C)c2=O)cc1
→ 0.6, 17.4*, -2.1, 7.4, 14.9, 6.8
[39] NS(=O)(=O)c1ccc(NC(=S)NC(=O)c2ccc3c(c2)OCO3)cc1
→ -2.4, -4.3, 5.0, 9.4, -10.6, 4.6
[40] CC(C)c1ccc(O)c(NC(=S)NC(=O)c2ccc3c(c2)OCO3)c1
→ 11.0*, 5.7, 17.0, -5.5, -21.6, 6.8
[41] CN1CCN(C(=O)C[C@@H]2CC[C@@H](NS(=O)(=O)c3cccc(F)c3)[C@@H](CO)O2)CC1
→ ., ., ., ., -12.4, .
[42] Cc1nc2sc(C(c3ccco3)N3CCC(C)CC3)c(O)n2n1 (centres undefined)
→ 0.0, 5.2, -8.2, 3.9, -6.4, 6.5
[43] Cc1nc2sc(C(c3ccco3)N3CC(C)OC(C)C3)c(O)n2n1 (centres undefined)
→ -0.7, 19.0*, 14.2, -0.1, -2.3, 18.5
[44] Cc1[nH]n(-c2ccccc2)c(=S)c1C=Nc1cccc([N+](=O)[O-])c1
→ -1.2, 24.5*, -6.8, -0.2, -12.5, -3.7

Complete entries as entered above.
`O=S(=O)(N[C@H]1CC[C@H](CCn2cc(C3CC3)nn2)O[C@H]1CO)c1ccc(F)cc1` is listed as MC4R ag barr = .; CendR NRP1 mod = .; ARFGAP1 inh = .; MC4R antag cAMP = .; Yeast UUG start = -2.0; ASAP1 inh = .
`Cc1cc(C)cc(NC2=NCC(=O)N2Cc2ccccc2)c1` is listed as MC4R ag barr = 0.7; CendR NRP1 mod = 35.1*; ARFGAP1 inh = -10.2; MC4R antag cAMP = 2.6; Yeast UUG start = -2.5; ASAP1 inh = 3.2
`Cc1ccccc1S(=O)(=O)N(C)C[C@@H]1OCc2cn(nn2)CCCC(=O)N([C@@H](C)CO)C[C@@H]1C` is listed as MC4R ag barr = .; CendR NRP1 mod = .; ARFGAP1 inh = .; MC4R antag cAMP = .; Yeast UUG start = 2.8; ASAP1 inh = .

High-throughput results deposited in PubChem BioAssay by several laboratories.
